Data on one molecule can be found in US9074188B2, “Cardiomyocyte- and/or cardiac progenitor cell-proliferating agent and method for proliferating cardiomyocytes and/or cardiac progenitor cells” (KYOTO UNIVERSITY, priority 2010, dated 2015).

The assay has as its system cardiomyocytes derived from the human iPS cell line 253G1. Nature of the assay: Positive rate of EdU by immunostaining, cardiomyocytes derived from human iPS cells. The note with it: agent added for 4 days, FIG. 5b.

Take `CC(C)c1cc(/C=C(\C#N)C(=O)NCCCc2ccccc2)cc(C(C)C)c1O` [SU1498, (E)-3-(3,5-diisopropyl-4-hydroxyphenyl)-2-[(3-phenyl-n-propyl)aminocarbonyl]acrylonitrile]: the “positive rate of EdU” value stood at 14.3±0.4%.
